Laboratory results published in ChEMBL document CHEMBL1122942, “Conformationally defined adrenergic agents. 1. Design and synthesis of novel alpha 2 selective adrenergic agents: electrostatic repulsion based conformational prototypes” (J Med Chem, 1985).

Amino acid sequences for entries named in this document (tags omitted). A change or cut given only in a name is not applied to a line headed by its entry.
UniProt P15823: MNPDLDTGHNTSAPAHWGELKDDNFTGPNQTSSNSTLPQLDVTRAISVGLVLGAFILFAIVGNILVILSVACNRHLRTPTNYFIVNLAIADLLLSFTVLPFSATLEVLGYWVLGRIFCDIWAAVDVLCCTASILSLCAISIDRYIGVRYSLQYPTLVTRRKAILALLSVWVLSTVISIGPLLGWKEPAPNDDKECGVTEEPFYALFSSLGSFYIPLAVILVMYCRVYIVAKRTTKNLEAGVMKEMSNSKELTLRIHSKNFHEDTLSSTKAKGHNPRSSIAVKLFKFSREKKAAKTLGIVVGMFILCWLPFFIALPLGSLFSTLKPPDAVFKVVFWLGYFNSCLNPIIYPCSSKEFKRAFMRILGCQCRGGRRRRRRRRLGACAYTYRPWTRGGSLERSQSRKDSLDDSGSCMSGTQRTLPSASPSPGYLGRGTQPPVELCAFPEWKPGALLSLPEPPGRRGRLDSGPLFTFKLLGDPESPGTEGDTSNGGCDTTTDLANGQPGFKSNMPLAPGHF
UniProt P23944: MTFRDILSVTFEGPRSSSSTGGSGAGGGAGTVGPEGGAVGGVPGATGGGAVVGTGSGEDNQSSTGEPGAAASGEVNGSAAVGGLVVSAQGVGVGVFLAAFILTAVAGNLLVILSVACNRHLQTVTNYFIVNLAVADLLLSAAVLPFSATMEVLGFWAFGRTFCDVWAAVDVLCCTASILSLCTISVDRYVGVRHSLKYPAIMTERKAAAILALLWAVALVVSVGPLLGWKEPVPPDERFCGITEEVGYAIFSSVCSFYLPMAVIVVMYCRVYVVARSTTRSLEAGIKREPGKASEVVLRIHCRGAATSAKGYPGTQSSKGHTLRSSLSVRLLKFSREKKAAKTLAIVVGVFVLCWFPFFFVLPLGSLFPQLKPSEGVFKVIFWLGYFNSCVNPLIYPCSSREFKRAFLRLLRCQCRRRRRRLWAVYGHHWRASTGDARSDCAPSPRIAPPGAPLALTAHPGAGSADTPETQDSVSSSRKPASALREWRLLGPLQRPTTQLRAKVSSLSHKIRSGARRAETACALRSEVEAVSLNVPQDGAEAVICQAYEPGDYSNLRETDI
UniProt P43140: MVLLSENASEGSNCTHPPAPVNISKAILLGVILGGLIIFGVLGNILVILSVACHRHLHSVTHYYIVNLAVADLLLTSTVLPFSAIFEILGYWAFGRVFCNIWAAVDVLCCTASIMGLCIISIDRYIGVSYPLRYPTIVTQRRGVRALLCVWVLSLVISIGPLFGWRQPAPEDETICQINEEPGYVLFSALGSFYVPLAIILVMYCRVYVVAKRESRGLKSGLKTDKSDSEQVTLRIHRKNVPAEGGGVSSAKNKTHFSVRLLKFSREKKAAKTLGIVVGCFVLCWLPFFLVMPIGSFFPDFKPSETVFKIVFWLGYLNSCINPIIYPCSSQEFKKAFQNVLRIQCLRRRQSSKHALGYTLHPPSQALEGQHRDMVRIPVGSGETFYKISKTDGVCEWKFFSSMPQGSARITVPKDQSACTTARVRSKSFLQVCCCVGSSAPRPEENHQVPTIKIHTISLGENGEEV

Target: Adrenergic receptor alpha-1 (Rattus norvegicus, UniProt P15823+P23944+P43140)
Assay: Binding affinity against alpha-1 adrenergic receptor in rat using [3H]prazosin as radioligand
Summary of the method: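 Male Sprague-Dawley rat liver membranes (50-150 µg/mL protein) in 50 mM Tris-HCl pH 7.7 with [3H]prazosin. Incubated 50 min at 25 °C; phentolamine 10^-5 M defined nonspecific binding. At least four concentrations from 10^-10 to 10^-3 M, each in duplicate. Bound ligand was filtered and counted by scintillation.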

Ki: 520 nM
Compound: Clc1cccc(Cl)c1NC1=NCCN1 [CLONIDINE]
